Laboratory results reported in US3985758A, “1,4-Dihydropyridine derivatives” (Yamanouchi Pharmaceutical Co., Ltd., priority 1973, dated 1976).
Converted amounts (≈) assume the structure as drawn. Like-named read-outs stand apart in the source and are kept apart here.

Tests used:
[1] = tested on: vertebral and femoral blood flow; experiment: Vertebral and femoral blood flow in anesthetized dogs; type: in vivo, mongrel dog; conditions: 0.01 mg/kg i.v. (0.01 or 0.03 mg/kg); significance vs SKF 24260
vertebral artery = experiment: Direct vasodilating effect on vertebral artery, constant volume perfusion; type: in vivo, mongrel dog; conditions: intra-arterial, anesthetized dogs
From the text: Heparin (1000 μ/Kg, i.v.) was used as an anticoagulant. The methods for perfusion of each artery were as following: 1) For the vertebral artery, the arterial blood led from the left common carotid artery was collected by the tygon tubing and perfused by the Sigma-motor pump (Mippleport N.Y. T-8) into the right vertebral artery. 2) For the femoral artery, the arterial blood led from the proximal femoral artery was perfused by the Sigma-motor pump into the distal femoral artery. […] All drugs were given into a rubber tube connected close to the each arterial cannula by a microinjector (Jintan Terumo, NSN-100).

guinea-pig ileum = experiment: Spasmolytic activity in isolated guinea-pig ileum (Magnus apparatus); conditions: Cavia porcellus, ±S.E.
Description: Methods: Isolated guinea-pig ileum was suspended in Tyrodes solution by use of Magnus apparatus and the movements of the muscle were recorded in a kymograph by an isotonic lever.

Q: For COC(=O)C1=C(C)NC(C)=C(C(=O)OC)C1c1ccccc1[N+](=O)[O-] [Nifedipine, 4-(2'-nitrophenyl)-2,6-dimethyl-1,4-dihydropyridine-3,5-dicarboxylic acid dimethyl ester], which “Separation ratio (percent increase of vertebral blood flow / that of femoral blood flow)” value [1] is on record?
A: 1.14 ± 0.36

Q: What about the “Selectivity ratio (ED50 in femoral artery/ED50 in vertebral artery)” value (vertebral artery) of the same molecule?
A: 0.50

Q: What about the IC50 (guinea-pig ileum; read-out: Spasmolytic activity, 50% inhibition of contractile response, Acetylchloline 10^-7 g/ml) of the same molecule?
A: 0.016 µg/mL (≈ 0.0462 µM)

Q: And the IC50 (guinea-pig ileum; read-out: Spasmolytic activity, 50% inhibition of contractile response, BaCl2 2×10^-4 g/ml)?
A: 0.0033 µg/mL (≈ 0.00953 µM)

Q: And the IC50 (guinea-pig ileum; read-out: Spasmolytic activity, 50% inhibition of contractile response, Histamine 10^-7 g/ml)?
A: 0.055 µg/mL (≈ 0.159 µM)
